≈ marks a conversion by molar mass, not a printed value.

Broadly, the MIC is the least concentration at which growth counts as inhibited.

The test system of test [1] is Staphylococcus aureus. The experiment in a line: Antibacterial activity against Staphylococcus aureus ATCC 29213 assessed as inhibition of bacterial growth at pH 7.4 incubated for 24 hrs by NCCLS protocol based method. It is filed as functional.
The test system of test [2] is Staphylococcus aureus. The experiment in a line: Antibacterial activity against Staphylococcus aureus ATCC 29213 assessed as inhibition of bacterial growth at pH 6.5 incubated for 24 hrs by NCCLS protocol based method. It is filed as functional.
Test [3] deals with Escherichia coli. The experiment in a line: Antibacterial activity against Escherichia coli ATCC 25922 assessed as inhibition of bacterial growth at pH 7.4 incubated for 24 hrs by NCCLS protocol based method. It is filed as functional.
For test [4], the system named is Salmonella typhimurium. As to the kind of experiment: Antibacterial activity against Salmonella enterica subsp. enterica serovar Typhimurium C77-31 assessed as inhibition of bacterial growth at pH 6.5 incubated for 24 hrs by NCCLS protocol based method. It is filed as functional.
The subject of test [5] is Pseudomonas aeruginosa. The experiment in a line: Antibacterial activity against Pseudomonas aeruginosa ATCC 27853 assessed as inhibition of bacterial growth at pH 7.4 incubated for 24 hrs by NCCLS protocol based method. Type of test: functional.
Test [6] deals with Pseudomonas aeruginosa. As to the kind of experiment: Antibacterial activity against Pseudomonas aeruginosa ATCC 27853 assessed as inhibition of bacterial growth at pH 6.5 incubated for 24 hrs by NCCLS protocol based method. It is filed as functional.
In test [7] the test system is Staphylococcus epidermidis. The experiment in a line: Antibacterial activity against Staphylococcus epidermidis ATCC 12228 assessed as inhibition of bacterial growth at pH 7.4 incubated for 24 hrs by NCCLS protocol based method. Type of test: functional.
Test [8] relates to Staphylococcus aureus. As to the kind of experiment: Antibacterial activity against methicillin-resistant Staphylococcus aureus ATCC 43300 assessed as inhibition of bacterial growth at pH 6.5 incubated for 24 hrs by NCCLS protocol based method. Type of test: functional.
In test [9] the test system is Salmonella typhimurium. As to the kind of experiment: Antibacterial activity against Salmonella typhimurium ATCC 14028 assessed as inhibition of bacterial growth at pH 7.4 incubated for 24 hrs by NCCLS protocol based method. The note with it: Salmonella enterica. It is filed as functional, Salmonella enterica subsp. enterica serovar Typhimurium.
The subject of test [10] is Staphylococcus aureus. The experiment in a line: Antibacterial activity against Staphylococcus aureus ATCC 25923 assessed as inhibition of bacterial growth at pH 6.5 incubated for 24 hrs by NCCLS protocol based method. It is filed as functional.
In test [11] the test system is Salmonella typhimurium. The experiment in a line: Antibacterial activity against Salmonella enterica subsp. enterica serovar Typhimurium C77-31 assessed as inhibition of bacterial growth at pH 7.4 incubated for 24 hrs by NCCLS protocol based method. Type of test: functional.
For test [12], the system named is Staphylococcus aureus. The experiment in a line: Antibacterial activity against Staphylococcus aureus ATCC 25923 assessed as inhibition of bacterial growth at pH 7.4 incubated for 24 hrs by NCCLS protocol based method. Type of test: functional.
In test [13] the test system is Staphylococcus aureus. The experiment in a line: Antibacterial activity against methicillin-resistant Staphylococcus aureus ATCC 43300 assessed as inhibition of bacterial growth at pH 7.4 incubated for 24 hrs by NCCLS protocol based method. It is filed as functional.
Test [14] concerns Staphylococcus epidermidis. As to the kind of experiment: Antibacterial activity against Staphylococcus epidermidis ATCC 12228 assessed as inhibition of bacterial growth at pH 6.5 incubated for 24 hrs by NCCLS protocol based method. Type of test: functional.
Test [15] has as its system Escherichia coli. As to the kind of experiment: Antibacterial activity against Escherichia coli ATCC 25922 assessed as inhibition of bacterial growth at pH 6.5 incubated for 24 hrs by NCCLS protocol based method. It is filed as functional.
In test [16] the test system is Salmonella typhimurium. As to the kind of experiment: Antibacterial activity against Salmonella typhimurium ATCC 14028 assessed as inhibition of bacterial growth at pH 6.5 incubated for 24 hrs by NCCLS protocol based method. It is filed as functional, Salmonella enterica subsp. enterica serovar Typhimurium. The note with it: Salmonella enterica.

On to `CC[C@H](C)[C@H](NC(=O)CN)C(=O)NCC(=O)N[C@@H](C)C(=O)N[C@H](C(=O)N[C@@H](CC(C)C)C(=O)N[C@@H](CCCCN)C(=O)N[C@H](C(=O)N[C@@H](CC(C)C)C(=O)N[C@H](C(=O)N[C@H](C(=O)NCC(=O)N[C@@H](CC(C)C)C(=O)N1CCC[C@H]1C(=O)N[C@@H](C)C(=O)N[C@@H](CC(C)C)C(=O)N[C@H](C(=O)N[C@@H](CO)C(=O)N[C@@H](Cc1c[nH]c2ccccc12)C(=O)N[C@H](C(=O)N[C@@H](CCCCN)C(=O)N[C@@H](CCCNC(=N)N)C(=O)N[C@@H](CCCCN)C(=O)N[C@@H](CCCNC(=N)N)C(=O)N[C@@H](CCC(N)=O)C(=O)N[C@@H](CCC(N)=O)C(N)=O)[C@@H](C)CC)[C@@H](C)CC)[C@@H](C)O)[C@@H](C)O)C(C)C)C(C)C` [MELITTIN], for which the minimum inhibitory concentration (MIC) in test [1] was determined as 8 µM (≈ 22.8 µg/mL); in [2] it was 4 µM (≈ 11.4 µg/mL); in [3], 2 µM (≈ 5.69 µg/mL); in test [4], 2 µM (≈ 5.69 µg/mL); in test [5] it was 2 µM (≈ 5.69 µg/mL); in test [6] it was 2 µM (≈ 5.69 µg/mL). Moreover, the MIC in test [7] is 2 µM (≈ 5.69 µg/mL); in test [8] it was 4 µM (≈ 11.4 µg/mL); in test [9], 2 µM (≈ 5.69 µg/mL); in test [10], 2 µM (≈ 5.69 µg/mL); in [11], 2 µM (≈ 5.69 µg/mL); in test [12] it was 8 µM (≈ 22.8 µg/mL). Further, the MIC in [13] was 8 µM (≈ 22.8 µg/mL); in test [14], 1 µM (≈ 2.85 µg/mL); in test [15] it was 1 µM (≈ 2.85 µg/mL); in test [16] it was 1 µM (≈ 2.85 µg/mL).

(Values after ChEMBL document CHEMBL5046301, “pH-Responsive Antimicrobial Peptide with Selective Killing Activity for Bacterial Abscess Therapy” (J Med Chem, 2022).)
